# From PubChem BioAssay
# Nrf2 block – blocks Nrf2 signaling; AID 504444; Potency, µM (highest dose often 46 µM), without a hit: at the top dose activity change, negative = inhibition, actives largely listed as inhibitors; 360,000 compounds, 2.1% hits; A549 ARE-Fluc reporter, luciferase luminescence, 18-24 h; note: potency is the fitted concentration of half-maximal effect; % is set by controls: 0 for no effect and ±100 for the full control effect; nearly all actives have a fitted effect of over 60% in size
#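 A549 ARE_Fluc cells (5000/well, 5% FBS OPTI-MEM) pre-incubated 2 h, then treated with compounds 18-24 h at 37C/5% CO2 in concentration-response. CellTiter-Fluor viability read first; BugLite luciferase luminescence after 15 min at room temperature gives Nrf2 activity.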
# miR-21 reporter – raises the signal of a miR-21 reporter | HeLa miR-21 FLuc reporter, luciferase, 48 h | Potency, µM (doses to about 38.3 µM), for the others: at the highest dose reporter change, positive = more light | 340,000 tested, under 10 active | AID 2288; active = well fitted rising curve with a large enough effect; inconclusive = small, poorly fitted or top-dose-only effect; inactive = no such curve, though single readings can be large or run the other way;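 also: % of control where 0% means no effect; miR-21 action dims this reporter so a rising signal means less miR-21 action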
#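 HeLa cells endogenously expressing miR-21, stably carrying CMV-driven firefly luciferase with a downstream miR-21 binding site, 2000 cells/well. Titrations up to approximately 40 uM, 48 hours; luciferase luminescence read.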
# Glioma ERSR ind – induces the endoplasmic reticulum stress response in human glioma cells. U87-MG GRP78 promoter luciferase reporter, 16 h. Potency, µM, for inactives: top-dose activation, usual class: activators. 420,000 compounds, 0.02% hits; note: potency is the fitted concentration of half-maximal effect; series mostly up to about 76 µM; % of control where 0% means no effect; nearly all actives have a fitted effect of over 35% in size
#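 Stably transfected U87-MG human glioma cells carrying a GRP78-based luminescent sensor were seeded at 1000 cells/well, pin-dosed with compounds and incubated 16 h. Luciferase reagent was then added, and end-point luminescence was read after 10 min at room temperature.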
# A549 viability – counter-screen for Nrf2 inhibitors: cytotoxicity in A549 cells. A549 ARE-Fluc cells, CellTiter-Fluor viability, 18-24 h. Potency, µM (series often up to 46 µM), without a hit: at the highest dose activity change, negative = cytotoxicity, hits mostly inhibitors. 390,000 compounds, 0.16% hits. AID 504648; note: potency is the fitted concentration of half-maximal effect; % is set by controls: 0 for no effect and ±100 for the full control effect
#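 A549 ARE_Fluc cells in 5% FBS OPTI-MEM were exposed to compounds in concentration-response for 18-24 h at 37 deg C. Viability was read by CellTiter-Fluor fluorescence (Ex 405/Em 525) after 30 min, before the luciferase read.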
# Nrf2 ARE act – activates Nrf2 signaling; AREc32 ARE-luciferase reporter (MCF7-derived line), luminescence, 24 h; Potency, µM (top dose mostly 46.1 µM), for the others: at the highest dose activation, most hits filed as activators; 410,000 compounds, 0.31% hits; AID 624171; note: potency is the fitted concentration of half-maximal effect; % of control where 0% means no effect; nearly all actives have a fitted effect of over 65% in size
#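 ARE activation measured as luciferase luminescence (Steady-Glo, 30 min RT) in AREc32_Fluc cells after 24 hr compound exposure at 37 deg C, 5% CO2; cells seeded overnight at 1000/well in OPTI-MEM, 5% FBS.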
# Mito fusion act – inhibitors of mitochondrial division or activators of mitochondrial fusion | S. cerevisiae fusion-defective mutant growth rescue, CellTiterGlo 48 h | 320,000 compounds, 0.23% hits | Potency, µM (doses to about 46.1 µM), inactives show top-dose growth rescue (activation), usual class: activators | AID 485298; note: potency is the fitted concentration of half-maximal effect; % of control where 0% means no effect; nearly all actives have a fitted effect of over 45% in size
#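 Temperature-sensitive fusion-defective S. cerevisiae (e.g. fzo1-1, mgm1-5) were grown with compound in YPEG medium (3% ethanol, 3% glycerol) for 48 hours at 37C. Growth rescue was measured as viability by CellTiterGlo luminescence after 10 minutes at ambient.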
# An asterisk follows results filed as active; ? = inconclusive; . = no result given. An excerpt weighted towards active compounds, which were near 2.3% of everything screened. Unless noted, calls come from the whole dose curve; as a rule, active = well fitted curve in the direction sought with a large enough effect; inconclusive = small, poorly fitted or top-dose-only effect, or another doubt; inactive = no such curve, though single readings can be large; an effect the other way counts as inactive or inconclusive.
# Screens by letter: A = Nrf2 block; B = miR-21 reporter; C = Glioma ERSR ind; D = A549 viability; E = Nrf2 ARE act; F = Mito fusion act
1: Cc1ccc(C2C(/C=C3/SC(=S)NC3=O)=C(c3cccs3)Oc3ccccc32)cc1 (stereo not drawn)
  A: 13µM*	B: ?	C: 0%	D: 10µM*	E: 12%	F: 14%

2: COc1ccccc1N1CCN(c2ncnc3onc(C)c23)CC1
  A: .	B: 3%	C: -2%	D: 15%	E: 1%	F: .

3: COc1ccc(-c2csc(=Nc3ccccc3)n2CCO)cc1F
  A: ?	B: 4%	C: 2%	D: -13%	E: 10%	F: .

4: COc1ccc(N=c2scc(-c3ccc(OC)cc3)n2CCO)cc1
  A: 18µM*	B: -12%	C: 0%	D: -24%	E: 2%	F: 24%

5: CCn1c(-c2ccc(S(=O)(=O)N3CCOCC3)cc2)csc1=Nc1ccc(C)c(Cl)c1
  A: ?	B: 0%	C: 0%	D: 3%	E: 0%	F: -3%

6: Clc1ccc(-c2csc(=Nc3cccnc3)n2CCCn2ccnc2)cc1Cl
  A: ?	B: ?	C: -4%	D: -8%	E: -1%	F: 9%

7: COCCCn1c(-c2ccc(S(=O)(=O)N3CCOCC3)cc2)csc1=Nc1ccccc1
  A: 16µM*	B: 1%	C: -3%	D: 1%	E: 3%	F: -2%

8: FC(F)Oc1ccc(-c2csc(=Nc3cccnc3)n2CC2CCCO2)cc1 (stereo not drawn)
  A: 15µM*	B: 26%	C: -1%	D: 0%	E: 1%	F: 8%

9: COCCn1c(-c2ccc(Br)cc2)csc1=Nc1cccnc1
  A: 18µM*	B: 15%	C: -7%	D: -15%	E: 3%	F: -15%

10: COc1ccc(-c2nc(CN3CCN(C(=O)c4ccco4)CC3)c(C)o2)c(OC)c1C
  A: -28%	B: 0%	C: 0%	D: -12%	E: 4%	F: -4%

11: COC(=O)CN(c1ccc2c(c1)OCO2)S(=O)(=O)c1c(C)[nH]c(=O)[nH]c1=O
  A: 11%	B: -1%	C: -5%	D: 1%	E: -1%	F: 0%

12: CCn1c(=O)sc2cc(NS(=O)(=O)c3ccc(F)c(C)c3)ccc21
  A: 18µM*	B: 16%	C: 1%	D: -3%	E: 14%	F: .

13: COc1ccc2[nH]c(=O)c(CNc3cc(C)ccc3C)cc2c1
  A: 18µM*	B: -22%	C: -3%	D: ?	E: 2%	F: 3%

14: CCOc1ccc(NCc2cc3cc(OC)ccc3[nH]c2=O)cc1
  A: 26µM*	B: 9%	C: 2%	D: -12%	E: 0%	F: -2%

15: COc1ccc2[nH]c(=O)c(CNc3ccc(C)cc3C)cc2c1
  A: 2%	B: -28%	C: 0%	D: 4%	E: 9%	F: 2%

16: Brc1ccc(-c2csc(NC3=NCCCCC3)n2)cc1
  A: ?	B: -67%	C: 8%	D: 1%	E: 10%	F: 28%

17: N#CC1=C2SCC(O)(c3ccccc3)N2C(=O)CC1c1ccccc1F (stereo not drawn)
  A: 10µM*	B: 15%	C: -5%	D: -6%	E: 5%	F: 6%

18: N#CC1=C2SCC(O)(c3ccccc3)N2C(=O)CC1c1cccs1 (stereo not drawn)
  A: .	B: 8%	C: 0%	D: -12%	E: 8%	F: 2%

19: COc1ccc(C(=O)NC(=S)Nc2ccc3c4c(cccc24)CC3)cc1OC
  A: 7.3µM*	B: -4%	C: -4%	D: -16%	E: -1%	F: -5%

20: COc1cc(OC)cc(C(=O)NC(=S)NNC(=O)[C@H]2C[C@@H]2c2ccccc2)c1
  A: ?	B: 0%	C: 13%	D: -6%	E: 0%	F: -13%

21: COc1ccc(C(=O)NC(=S)NNC(=O)[C@H]2C[C@@H]2c2ccccc2)cc1OC
  A: 16µM*	B: 4%	C: -1%	D: 0%	E: 0%	F: -15%

22: Cc1ccc(OCCn2cc(C(=O)O)c3ccccc32)cc1
  A: 10%	B: -24%	C: -2%	D: 0%	E: 0%	F: -5%

23: COc1ccc(-c2nc(NC(=O)c3cc(C(C)(C)C)nn3C)sc2C)cc1
  A: 18µM*	B: ?	C: 1%	D: ?	E: 0%	F: 15%

24: COc1ccc(-c2cc(C)no2)cc1S(=O)(=O)N1CCN(c2ccc(C(C)=O)cc2)CC1
  A: 13µM*	B: 20%	C: -2%	D: -1%	E: 0%	F: .

25: CCOC(=O)c1cc(-c2ccc(OC)c(S(=O)(=O)N3CCN(c4ccccc4)CC3)c2)on1
  A: ?	B: -1%	C: -11%	D: 3%	E: 1%	F: .

26: O=C(OCn1ncc(Cl)c(Cl)c1=O)c1ccccc1Cl
  A: 23µM*	B: 27%	C: -16%	D: .	E: ?	F: -18%

27: COc1ccc(NC(=O)CSc2nnc(-c3nonc3NC(C)=O)n2-c2ccccc2)cc1
  A: -12%	B: 6%	C: 0%	D: -2%	E: -1%	F: .

28: CCCCN(CC)CCCNC(=O)c1cn(CC)c2ccc(S(=O)(=O)N3CCc4ccccc4C3)cc2c1=O
  A: -1%	B: 1%	C: -2%	D: -7%	E: 1%	F: 6%

29: CN(CC(=O)Nc1ccc(F)cc1)C(=O)COC(=O)COc1ccc(C#N)cc1
  A: 5%	B: .	C: -4%	D: -5%	E: -1%	F: -8%

30: CC1CN(S(=O)(=O)c2cccc(-c3cn4ccccc4n3)c2)CC(C)O1 (stereo not drawn)
  A: ?	B: 12%	C: -2%	D: -6%	E: 0%	F: 2.8µM*

# Following part.
no.	canonical_smiles	Nrf2 block	miR-21 reporter	Glioma ERSR ind	A549 viability	Nrf2 ARE act	Mito fusion act
31	Cc1ccc(Cl)cc1NC(=O)c1ccc(Cn2cc(Cl)cn2)cc1	?	15%	-1%	1%	0%	20µM*
32	O=C(Nc1ccccc1F)c1ccc(Cn2cc(Cl)cn2)cc1	?	-62%	7%	-1%	2%	16%
33	CCOc1ccc(C(=O)Nc2cnn(Cc3ccc(Cl)c(Cl)c3)c2)cc1	23µM*	20%	1%	?	2%	-7%
34	O=C(c1ccco1)N1CCN(C(=O)c2ccc(-c3ccc([N+](=O)[O-])cc3)o2)CC1	-1%	.	-2%	3%	5%	.
35	COc1ccc(CCN2CC(C(=O)N(C)C3CCOCC3)CCC2=O)cc1 (stereo not drawn)	2%	-3%	-1%	3%	-1%	-6%
36	O=C(Nc1ccc2oc(-c3ccc4ccccc4c3)nc2c1)c1cccc(Cl)c1Cl	18%	-38%	2%	2%	0%	.
37	CCc1ccc2oc(-c3ccc(NC(=O)c4cccc(Cl)c4Cl)cc3)nc2c1	8.2µM*	13%	13%	-1%	0%	.
38	COc1cc(-c2nnc3sc(-c4ccncc4)nn23)cc(OC)c1OC	1%	.	-4%	4%	-1%	.
39	COc1ccc(-c2nc(-c3ccccc3)c(-c3cc([N+](=O)[O-])ccc3C)[nH]2)cc1OC	?	-2%	7%	-16%	6%	19%
40	CCOc1cc(-c2nc(-c3ccccc3)c(-c3cc([N+](=O)[O-])ccc3C)[nH]2)ccc1O	?	?	-2%	?	3%	14µM*
41	CCNCc1ccc(OCc2cccs2)c(OCC)c1	4%	-2%	-1%	32%	5%	1%
42	CCCn1nnc(NCc2ccc(OCc3cccs3)c(OC)c2)n1	8.2µM*	-2%	-1%	.	0%	-6%
43	Nn1c(-c2ccc(F)cc2)nc2ccccc2c1=O	-7%	-4%	-2%	10%	2%	-23%
44	O=C1c2cc(F)ccc2-n2c1nc1ccccc1c2=O	6.5µM*	21%	-5%	12µM*	3%	1%

# Five entries picked at random from the list so far, as already listed:
no.	canonical_smiles	Nrf2 block	miR-21 reporter	Glioma ERSR ind	A549 viability	Nrf2 ARE act	Mito fusion act
1	Cc1ccc(C2C(/C=C3/SC(=S)NC3=O)=C(c3cccs3)Oc3ccccc32)cc1 (stereo not drawn)	13µM*	?	0%	10µM*	12%	14%
4	COc1ccc(N=c2scc(-c3ccc(OC)cc3)n2CCO)cc1	18µM*	-12%	0%	-24%	2%	24%
17	N#CC1=C2SCC(O)(c3ccccc3)N2C(=O)CC1c1ccccc1F (stereo not drawn)	10µM*	15%	-5%	-6%	5%	6%
3	COc1ccc(-c2csc(=Nc3ccccc3)n2CCO)cc1F	?	4%	2%	-13%	10%	.
41	CCNCc1ccc(OCc2cccs2)c(OCC)c1	4%	-2%	-1%	32%	5%	1%
